Here are results for 1 compound from ChEMBL document CHEMBL5096187, “Efficient Synthesis and Bioevaluation of Novel Dual Tubulin/Histone Deacetylase 3 Inhibitors as Potential Anticancer Agents” (J Med Chem, 2021).

For this assay, the species on record is Homo sapiens. The assay is described as follows: Selectivity index, ratio of IC50 for Inhibition of full length N-terminal GST-tagged human recombinant HDAC7 (501 to 952 residues) expressed in Baculovirus system using Ac-Leu-Gly-Lys (Ac)-AMC as substrate to IC50 for inhibition of full length C-terminal his-tagged human recombinant HDAC8 (142 to 143 residues) expressed in baculovirus in Sf9 insect cells using Ac-Leu-Gly-Lys (Tfa)-AMC as substrate.

The structures appear in SMILES notation.

Turning to `COc1cc(C(=O)c2csc(-c3ccc(NC(=O)/C=C/C(=O)Nc4ccccc4N)cc3)n2)cc(OC)c1OC`, the Selectivity Index turned out to be 54.
